{"source": "patent US20130158024A1", "about": "“TRICYCLIC NECROSTATIN COMPOUNDS” (priority 2005, published 2013)", "test_system": "L929 cells", "test": "TNFα-induced CICD of L929 cells, ATP assay", "format": "cell-based, mouse", "data": [{"smiles": "O=[N+]([O-])c1ccc(-c2nc(-c3ccncc3)c(-c3ccc(F)cc3)[nH]2)cc1", "note": "[PD169316, reference compound]", "values": [{"measurement": "protection of L929 cells from TNFα-induced CICD, in words", "value": "neither these compounds nor geldanamycin work in L929 cells"}]}]}
